pIC50: −log10 of the molar value.
Legend:
[1] = molecular target: T1, PDE4A1 (Homo sapiens, UniProt P27815); experiment: Inhibition assay of PDE4A1 enzyme (FP kit); assay type: biochemical
T1 construct: purchased BPS 60340
Protocol: 3. Inhibition assay of PDE4A1 enzyme:
(§1) Materials and Instruments:
FAM substrate: 25 μL of a FAM substrate stock solution was added into 2500 μL of PDE assay buffer. 25 μL of the diluted substrate was added to each reaction well.
(§2) 5 μL of the compound stock solution was added to 45 μL of DMSO to prepare a 1 mM diluent. 5 μL of the 1 mM diluent was added to 45 μL of PDE assay buffer to prepare a gradient dilution starting point. Then, according to the method of adding 5 μL of the previous concentration solution to 15 μL of PDE assay buffer, gradient dilution was carried out for 9 times to prepare compound working solutions with 10 concentrations. The working solutions were added to compound wells at 5 μL/well.
(§3) PDE4A1: First, a PDE4A1 stock solution was diluted by 100 times to a concentration of 4.9 ng/μL, 1.8 μL of the diluent was added to 2200 μL of PDE assay buffer, and the mixture was added to all compound wells and positive control wells at 20 μL/well. 20 μL of PDE assay buffer was added to substrate control wells.
Binding solution: 95 μL of binding buffer was added into 9.5 mL of binder diluent, and then mixed well. The obtained mixture was added to all wells at 100 μL/well.
(§4) FPsub=Substrate control FP.

Protein sequences, listed by entry. Tags and fused reporters are not part of them. Lines headed by an entry give the natural chain unless they say otherwise; changes in a name come on top. Residues count along the entry.
UniProt P27815, 1-647 isoform P27815-4: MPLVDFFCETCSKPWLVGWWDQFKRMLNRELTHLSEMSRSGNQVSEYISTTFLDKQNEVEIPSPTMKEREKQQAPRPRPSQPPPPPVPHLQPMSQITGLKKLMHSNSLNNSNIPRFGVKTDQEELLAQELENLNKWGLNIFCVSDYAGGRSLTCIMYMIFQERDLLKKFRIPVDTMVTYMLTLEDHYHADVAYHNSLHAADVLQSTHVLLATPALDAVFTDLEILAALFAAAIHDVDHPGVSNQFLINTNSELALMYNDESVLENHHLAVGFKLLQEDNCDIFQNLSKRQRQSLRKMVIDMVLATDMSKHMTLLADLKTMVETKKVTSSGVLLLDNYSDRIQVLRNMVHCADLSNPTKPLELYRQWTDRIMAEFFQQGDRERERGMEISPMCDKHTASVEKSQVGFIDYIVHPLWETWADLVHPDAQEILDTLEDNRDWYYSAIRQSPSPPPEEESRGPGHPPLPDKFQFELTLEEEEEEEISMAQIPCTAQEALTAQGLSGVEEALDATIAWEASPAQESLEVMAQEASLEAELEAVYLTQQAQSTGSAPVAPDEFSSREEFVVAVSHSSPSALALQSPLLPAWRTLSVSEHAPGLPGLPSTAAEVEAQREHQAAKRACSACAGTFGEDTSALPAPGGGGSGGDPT
UniProt Q08493: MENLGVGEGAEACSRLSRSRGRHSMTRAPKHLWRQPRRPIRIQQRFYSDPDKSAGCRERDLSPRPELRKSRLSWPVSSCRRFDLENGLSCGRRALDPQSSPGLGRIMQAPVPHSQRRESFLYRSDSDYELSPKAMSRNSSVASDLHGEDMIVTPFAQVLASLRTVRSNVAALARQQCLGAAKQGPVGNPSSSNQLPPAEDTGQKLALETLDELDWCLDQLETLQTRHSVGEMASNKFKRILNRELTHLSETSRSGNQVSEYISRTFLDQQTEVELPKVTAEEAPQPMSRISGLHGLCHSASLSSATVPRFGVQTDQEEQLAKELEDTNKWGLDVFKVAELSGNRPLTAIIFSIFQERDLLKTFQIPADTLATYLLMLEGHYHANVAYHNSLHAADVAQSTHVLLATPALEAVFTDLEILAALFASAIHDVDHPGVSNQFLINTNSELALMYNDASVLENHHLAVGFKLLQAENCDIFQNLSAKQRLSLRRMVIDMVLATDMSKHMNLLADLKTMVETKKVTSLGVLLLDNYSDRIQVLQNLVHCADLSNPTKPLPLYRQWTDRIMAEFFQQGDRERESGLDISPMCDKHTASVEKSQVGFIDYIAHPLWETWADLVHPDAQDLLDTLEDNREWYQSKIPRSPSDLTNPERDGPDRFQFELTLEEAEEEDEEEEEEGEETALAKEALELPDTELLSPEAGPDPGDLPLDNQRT

[2] = molecular target: T2, PDE4C1 (Homo sapiens, UniProt Q08493); experiment: Inhibition assay of PDE4C1 enzyme (FP kit); assay type: biochemical
T2 construct: purchased BPS 60384
Protocol: 5. Inhibition assay of PDE4C1 enzyme:
as §1
FAM substrate: 12.5 μL of a FAM substrate stock solution was added into 1250 μL of PDE assay buffer. 12.5 μL of the diluted substrate was added to each reaction well.
as §2, with “at 2.5” for “at 5”
as §3, with “PDE4C1:” for “PDE4A1:”, “PDE4C1” for “PDE4A1”, “3.2” for “4.9”, “13.75” for “1.8”, “1100” for “2200”, “10” for “20”
Binding solution: 50 μL of binder was added into 5 mL of binder diluent, and then mixed well. The obtained mixture was added to all wells at 50 μL/well.
as §4

CCOc1cc([C@@H](CS(C)(=O)=O)N2C(=O)c3cccc(NC(C)=O)c3C2=O)ccc1OC [Example 0, Apremilast, reference compound]
pIC50 [1]: 6.70 to 7.00
pIC50 [2]: 6.30 to 6.70
